Assay results as given in ChEMBL document CHEMBL4680104, “Structure-Based Optimization of Small-Molecule Inhibitors for the β-Catenin/B-Cell Lymphoma 9 Protein-Protein Interaction” (J Med Chem, 2018).

Species on record: Homo sapiens
Experiment: Selectivity index, ratio of Ki for inhibition of protein interaction between beta-catenin (unknown origin)/E-cadherin (unknown origin) to Ki for inhibition of protein interaction between beta-catenin (unknown origin)/BCL9 (unknown origin)

## Cl.Cl.O=C(Nc1ccc(O[C@H]2CCNC2)c(-c2ccc(F)cc2)c1)c1ccc(O[C@H]2CCNC2)c(-c2ccc(F)c(F)c2)c1
  Ratio Ki: 125
